The values that follow come from patent US20200317817A1 (XOMA US, published 2020).

By UniProt entry, the sequences of proteins in these tests, tags left out. Residues count along the entry.
UniProt Q03431, 27-593: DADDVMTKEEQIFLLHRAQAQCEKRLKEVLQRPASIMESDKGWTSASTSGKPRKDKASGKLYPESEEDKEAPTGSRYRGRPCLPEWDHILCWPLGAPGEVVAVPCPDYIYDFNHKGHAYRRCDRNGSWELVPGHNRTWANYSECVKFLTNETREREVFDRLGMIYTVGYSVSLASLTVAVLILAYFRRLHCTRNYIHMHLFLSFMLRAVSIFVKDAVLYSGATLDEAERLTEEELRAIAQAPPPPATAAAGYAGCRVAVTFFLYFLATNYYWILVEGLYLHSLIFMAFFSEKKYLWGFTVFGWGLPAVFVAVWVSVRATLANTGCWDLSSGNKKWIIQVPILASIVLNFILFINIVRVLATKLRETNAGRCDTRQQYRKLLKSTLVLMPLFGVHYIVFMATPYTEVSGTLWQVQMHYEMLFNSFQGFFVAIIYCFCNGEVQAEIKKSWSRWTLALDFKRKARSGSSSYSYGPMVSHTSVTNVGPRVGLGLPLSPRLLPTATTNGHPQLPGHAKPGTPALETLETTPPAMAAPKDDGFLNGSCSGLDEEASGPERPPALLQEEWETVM

The target in assay [1] is human PTH1R on Saos-2 cells (endogenous) (human) (UniProt Q03431). Description: cell-based or functional assay.
Assay [2] addresses human PTH1R overexpressed on CHO cells (human) (UniProt Q03431). Description: cell-based or functional assay.

With “human PTHrP(1-34) (from UniProt P12272 37-70) (peptide)”, the figures for the EC50 of PTHrP(1-34), cAMP assay, vehicle only in assay [1] and in assay [2] were 699 pM and 61.4 pM, respectively. Further, the EC50 of PTHrP (1-34) induced ERK1/2 phosphorylation without anti-PTH1R antibody in assay [2] came to 10600 pM.
